System: A7r5 cells
Experiment: Viability / cytotoxicity of A7r5 cells
Type: cell-based, rat
Source text: FIG. 24. Effects of 6- and 8-TG on A7r5 cells. Treatment of cells with 6- or 8-TG is described in FIGS. 19 and 21. The image associated with the effect of 6- or 8-TG was taken after 5 days of treatment.

In the case of Nc1nc2nc[nH]c2c(=S)[nH]1 [6-TG, 6-thioguanine], the “cytotoxicity, change in cell viability” value (6-TG-mediated apoptosis in slow-growing cells) is reported as at most 5% and the “viability / cytotoxicity of A7r5 cells” value (5 days of treatment, FIG. 24) is reported as “minimal cytotoxicity”.

— patent US8729047B2, “Compositions for inhibiting redox-sensitive GTPases” (Board of Regents, The University of Texas System, priority 2010, dated 2014)
